Test results reported in patent US20120088753A1, “PYRROLOPYRIMIDINES AND USED AS KINASE INHIBITORS” (MEDICAL RESEARCH COUNCIL TECHNOLOGY, priority 2009, published 2012).

Amino acid sequences for entries named in this document (tags omitted).
UniProt Q9UHD2, whole entry: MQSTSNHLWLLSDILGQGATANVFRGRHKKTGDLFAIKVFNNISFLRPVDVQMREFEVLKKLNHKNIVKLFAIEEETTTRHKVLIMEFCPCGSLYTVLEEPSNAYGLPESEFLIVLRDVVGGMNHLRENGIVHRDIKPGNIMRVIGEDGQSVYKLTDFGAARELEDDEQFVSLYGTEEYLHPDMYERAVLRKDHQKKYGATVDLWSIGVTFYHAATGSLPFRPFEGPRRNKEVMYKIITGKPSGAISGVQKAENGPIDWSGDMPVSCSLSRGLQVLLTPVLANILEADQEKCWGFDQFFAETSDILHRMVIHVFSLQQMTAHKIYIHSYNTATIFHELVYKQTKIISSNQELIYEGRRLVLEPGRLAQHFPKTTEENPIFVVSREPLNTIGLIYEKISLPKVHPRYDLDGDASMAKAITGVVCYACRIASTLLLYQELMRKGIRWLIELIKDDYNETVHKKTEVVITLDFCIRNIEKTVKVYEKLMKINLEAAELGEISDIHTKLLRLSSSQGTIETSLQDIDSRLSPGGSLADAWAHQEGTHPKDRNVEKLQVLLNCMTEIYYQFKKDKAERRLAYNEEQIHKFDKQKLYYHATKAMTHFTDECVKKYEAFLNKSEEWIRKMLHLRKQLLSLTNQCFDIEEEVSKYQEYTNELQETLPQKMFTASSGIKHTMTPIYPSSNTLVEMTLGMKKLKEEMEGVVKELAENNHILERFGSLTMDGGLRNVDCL

Biological target: TBK1 (Homo sapiens, UniProt Q9UHD2)
Test: TBK1 protein kinase assay ([γ-33P]ATP filter-plate, IC50 from 10 concentrations)
Type: biochemical
Conditions: read-out: Potency score (TBK1 IC50); 50 μM ATP, peptide substrate 300 μM, 30 min, 21° C.
Text: All protein kinases were of human origin and encoded full length proteins, unless indicated otherwise. They were either expressed as glutathione S-transferase (GST) fusion proteins in Escherichia Coli or as hexahistidine (His6)-tagged proteins in insect Sf21 cells. GST fusion proteins were purified by affinity chromatography on glutathione-Sepharose, and His6-tagged proteins on nickel/nitriloacetate-agarose. The procedures for expressing some of the protein kinases used herein have been detailed previously.^8,9 The following sections outline the DNA vectors synthesised and the procedures used to express and purifying protein kinases that have not been reported previously.
The following kinases were expressed in Sf21 cells: Aurora B and Aurora C, extra-cellular signal-regulated kinase 8 (ERK8), microtubule affinity regulating kinase 3 (MARK3), protein kinase Bα[118-480][S473D], protein kinase Bβ (PKBβ[120-481][S474D], 3-phosphoinositide-dependent protein kinase-1 [52-556] (PDK1[52-556], IKKε, TBK1, […]
The assays were initiated with MgATP, stopped by addition of 5 μl of 0.5 M orthophosphoric acid and spotted on to P81 filterplates using a unifilter harvester (PerkinElmer, Boston, Mass. 02118, USA). The IC50 values of inhibitors were determined after carrying out assays at 10 different concentrations of each compound. […]

IC50: < 100 nM
Structure (SMILES): O=C(NCCCn1ccc2cnc(Nc3ccc(-n4cncn4)cc3)nc21)C1CCC1
